Measured values taken from paper PMC2994877, “A Full Pharmacological Analysis of the Three Turkey β-Adrenoceptors and Comparison with the Human β-Adrenoceptors” (PLoS ONE, 2010).

Amino acid sequences for entries named in this document (tags omitted).
UniProt A0A803YLI8, entry or part of it: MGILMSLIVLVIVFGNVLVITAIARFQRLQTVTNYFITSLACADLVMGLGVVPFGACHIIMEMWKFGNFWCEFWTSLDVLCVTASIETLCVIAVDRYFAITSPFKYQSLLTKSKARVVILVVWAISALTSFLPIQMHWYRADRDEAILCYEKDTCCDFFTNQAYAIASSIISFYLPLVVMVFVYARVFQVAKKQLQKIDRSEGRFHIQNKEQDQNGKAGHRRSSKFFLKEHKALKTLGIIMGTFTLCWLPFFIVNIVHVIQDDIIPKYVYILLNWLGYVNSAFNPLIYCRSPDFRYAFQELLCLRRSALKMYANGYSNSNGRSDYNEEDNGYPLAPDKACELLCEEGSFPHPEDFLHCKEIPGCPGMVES

Legend:
[1] = target: T1, turkey β4C-adrenoceptor (tβ4C) (Meleagris gallopavo, UniProt P43141); details: CRE-SPAP, % of 10 µM isoprenaline maximum, CHO tβ4C cells
T1 sequence (P43141 1-428): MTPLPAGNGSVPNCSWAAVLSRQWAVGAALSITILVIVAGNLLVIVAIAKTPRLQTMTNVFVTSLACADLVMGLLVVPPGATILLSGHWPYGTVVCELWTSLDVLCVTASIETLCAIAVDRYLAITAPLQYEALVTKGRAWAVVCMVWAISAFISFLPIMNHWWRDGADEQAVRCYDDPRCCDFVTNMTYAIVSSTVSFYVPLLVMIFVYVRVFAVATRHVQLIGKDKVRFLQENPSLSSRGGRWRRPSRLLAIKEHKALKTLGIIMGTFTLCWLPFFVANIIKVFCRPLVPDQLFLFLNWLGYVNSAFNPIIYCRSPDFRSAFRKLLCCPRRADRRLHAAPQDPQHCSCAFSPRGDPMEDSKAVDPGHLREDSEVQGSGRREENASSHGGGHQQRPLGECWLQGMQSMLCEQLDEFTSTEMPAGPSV

[2] = target: turkey β3C-adrenoceptor (tβ3C) (Meleagris gallopavo, UniProt A0A803YLI8); test: CRE-SPAP production, CHO tβ3C cells; details: read-out: % isop max

**Q.** CC(Cc1ccc(O)cc1)NCC(O)c1cc(O)cc(O)c1 (centres unmarked) [Fenoterol] was tested. Which “% isop max” value [1] did it give?
**A.** The value was 99.9±3.0%.

**Q.** What about the Emax [2] of the same compound?
**A.** Its Emax is 106 ± 3%.
